# Laboratory results as given in paper PMC11852049, “Impact of Hydrophobic, Hydrophilic, and Mucus-Binding Motifs on the Therapeutic Potential of Ceftazidime Analogs for Pulmonary Administration” (Antibiotics, 2025).
# System: human bronchial epithelial cell air–liquid interface culture
# Experiment: Transepithelial transport assay (Papp), HBEC air–liquid interface cultures on Transwells
# Details: for reduction in Papp / transepithelial transport rate versus ceftazidime: HBEC ALI cultures; for Papp compared to ceftazidime: paired two-tailed t-test
structure (smiles),measurement,setting,value
"CC(C)(O/N=C(\C(=O)N[C@@H]1C(=O)N2C(C(=O)[O-])=C(C[n+]3ccccc3)CS[C@H]12)c1csc(N)n1)C(=O)O [Ceftazidime pentahydrate, ceftazidime pentahydrate, reference compound]",Papp x10-6,"compound set 1, lung donor N715",3.17 x10-6
same,Papp x10-6,"compound set 1, lung donor N716",3.37 x10-6
same,Papp x10-6,"compound set 1, lung donor N720",3.54 x10-6
same,Papp x10-6,"compound set 2, lung donor KC29",1.86 x10-6
same,Papp x10-6,"compound set 2, lung donor L2",2.13 x10-6
same,Papp x10-6,"compound set 2, lung donor L224",3.63 x10-6
"CCCCNC(=O)C(C)(C)O/N=C(/C(=O)N[C@@H]1C(=O)N2C(C(=O)[O-])=C(C[n+]3ccccc3)CS[C@H]12)c1csc(N)n1 [Compound 1, n-butyl-ceftazidime]",reduction in Papp / transepithelial transport rate versus ceftazidime,,40–50%
same,Papp compared to ceftazidime,compound set 1,significantly (p < 0.05) lower
COCCOCCOCCOCCOCCOCCOCCOCCNC(=O)C(C)(C)O/N=C(/C(=O)N[C@@H]1C(=O)N2C(C(=O)[O-])=C(C[n+]3ccccc3)CS[C@H]12)c1csc(N)n1 [Compound 9],reduction in Papp / transepithelial transport rate versus ceftazidime,,40–50%
same,Papp compared to ceftazidime,compound set 1,significantly (p < 0.05) lower
CC(C)(O/N=C(/C(=O)N[C@@H]1C(=O)N2C(C(=O)[O-])=C(C[n+]3ccccc3)CS[C@H]12)c1csc(N)n1)C(=O)NCCNc1ccnc(N)n1 [Compound 14],Papp compared to ceftazidime,compound set 2,trended lower
"CC(C)(O/N=C(/C(=O)N[C@@H]1C(=O)N2C(C(=O)[O-])=C(C[n+]3ccccc3)CS[C@H]12)c1csc(N)n1)C(=O)NCCOCCOCCOCCOCCOCCNc1ccnc(N)n1 [Compound 15, PEG5-pyrimidin-2-amine-ceftazidime]",reduction in Papp / transepithelial transport rate versus ceftazidime,,40–50%
same,Papp compared to ceftazidime,compound set 1,significantly (p < 0.05) lower
CC(C)(O/N=C(/C(=O)N[C@@H]1C(=O)N2C(C(=O)[O-])=C(C[n+]3ccccc3)CS[C@H]12)c1csc(N)n1)C(=O)NCCNC(=O)c1ccc(B(O)O)cc1 [Compound 18],Papp compared to ceftazidime,compound set 2,trended lower
